Test results as given in paper PMC8523698, “Preclinical characterization of an intravenous coronavirus 3CL protease inhibitor for the potential treatment of COVID19” (Nature Communications, 2021).

Amino acid sequences for entries named in this document (tags omitted). Residues count along the entry.
UniProt Q86VL8, 1-566 isoform Q86VL8-3: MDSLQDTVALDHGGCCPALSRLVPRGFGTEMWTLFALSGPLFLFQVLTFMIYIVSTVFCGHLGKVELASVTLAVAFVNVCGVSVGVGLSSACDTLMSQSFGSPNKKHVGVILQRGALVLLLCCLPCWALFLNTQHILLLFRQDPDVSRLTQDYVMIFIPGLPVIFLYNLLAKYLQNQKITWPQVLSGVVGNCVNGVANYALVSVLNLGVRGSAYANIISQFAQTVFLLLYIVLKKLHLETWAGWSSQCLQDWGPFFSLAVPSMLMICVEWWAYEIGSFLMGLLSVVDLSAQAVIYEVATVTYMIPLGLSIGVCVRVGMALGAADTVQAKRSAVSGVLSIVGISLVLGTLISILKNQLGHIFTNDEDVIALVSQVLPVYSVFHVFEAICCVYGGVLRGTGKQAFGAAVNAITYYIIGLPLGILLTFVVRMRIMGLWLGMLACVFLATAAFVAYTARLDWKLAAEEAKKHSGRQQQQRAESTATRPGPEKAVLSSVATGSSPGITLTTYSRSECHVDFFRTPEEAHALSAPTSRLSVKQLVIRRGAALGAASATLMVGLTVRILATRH

Tests used:
MATE2K = molecular target: T1, MATE2K (Homo sapiens, UniProt Q86VL8); test: Transporter inhibition using transfected HEK293 cells; assay type: in vitro ADME; details: uptake of [14C]-metformin by MATE2K; control inhibitor concentration 500 uM; single replicates
T1 construct: expressed in transfected cells; host or cells: HEK293

MATE1 = molecular target: T2, MATE1 (Homo sapiens, UniProt Q96FL8); test: as above; details: uptake of [14C]-metformin by MATE1; control inhibitor concentration 500 uM; single replicates
T2 sequence (Q96FL8 1-570): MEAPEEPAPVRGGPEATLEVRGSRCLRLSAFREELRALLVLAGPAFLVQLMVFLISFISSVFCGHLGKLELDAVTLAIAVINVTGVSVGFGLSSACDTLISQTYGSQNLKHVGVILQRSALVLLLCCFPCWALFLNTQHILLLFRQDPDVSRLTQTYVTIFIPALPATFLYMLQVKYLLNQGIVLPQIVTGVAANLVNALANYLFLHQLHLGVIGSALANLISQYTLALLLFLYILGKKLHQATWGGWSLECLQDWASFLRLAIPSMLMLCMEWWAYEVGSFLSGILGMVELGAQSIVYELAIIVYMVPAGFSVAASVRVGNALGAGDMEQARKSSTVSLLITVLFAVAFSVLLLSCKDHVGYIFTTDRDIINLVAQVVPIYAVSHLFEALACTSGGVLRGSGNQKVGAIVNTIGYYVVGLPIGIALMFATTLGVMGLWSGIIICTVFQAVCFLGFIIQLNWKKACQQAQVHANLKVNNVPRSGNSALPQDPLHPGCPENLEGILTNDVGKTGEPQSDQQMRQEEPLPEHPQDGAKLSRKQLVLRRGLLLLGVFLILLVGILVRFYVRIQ

OATP1B3 = molecular target: T3, OATP1B3 (Homo sapiens, UniProt Q9NPD5); test: as above; details: uptake of Rosuvastatin by OATP1B3; control inhibitor 20 uM
T3 sequence (Q9NPD5 1-702): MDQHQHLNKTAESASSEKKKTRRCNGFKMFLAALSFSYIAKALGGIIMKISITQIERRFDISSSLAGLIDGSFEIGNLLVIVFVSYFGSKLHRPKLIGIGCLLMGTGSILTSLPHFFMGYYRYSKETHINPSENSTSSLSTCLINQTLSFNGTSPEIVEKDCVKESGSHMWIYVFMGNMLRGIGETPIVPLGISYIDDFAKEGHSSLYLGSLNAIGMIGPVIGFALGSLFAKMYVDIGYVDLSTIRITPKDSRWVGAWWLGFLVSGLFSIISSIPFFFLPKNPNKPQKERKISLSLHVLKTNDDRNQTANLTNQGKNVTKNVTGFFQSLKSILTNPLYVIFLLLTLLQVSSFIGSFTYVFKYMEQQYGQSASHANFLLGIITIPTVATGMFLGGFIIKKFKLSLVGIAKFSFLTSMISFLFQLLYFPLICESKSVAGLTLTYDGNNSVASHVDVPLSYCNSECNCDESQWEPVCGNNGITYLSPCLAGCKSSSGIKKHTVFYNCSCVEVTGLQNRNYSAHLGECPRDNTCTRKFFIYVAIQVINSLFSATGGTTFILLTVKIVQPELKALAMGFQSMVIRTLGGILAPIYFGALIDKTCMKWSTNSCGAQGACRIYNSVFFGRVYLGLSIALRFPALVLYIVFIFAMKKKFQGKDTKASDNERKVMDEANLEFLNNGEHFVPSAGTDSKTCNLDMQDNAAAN

OATP1B1 = molecular target: T4, OATP1B1 (Homo sapiens, UniProt Q9Y6L6); test: as above; details: uptake of Rosuvastatin by OATP1B1; control inhibitor 20 uM
T4 sequence (Q9Y6L6 1-691): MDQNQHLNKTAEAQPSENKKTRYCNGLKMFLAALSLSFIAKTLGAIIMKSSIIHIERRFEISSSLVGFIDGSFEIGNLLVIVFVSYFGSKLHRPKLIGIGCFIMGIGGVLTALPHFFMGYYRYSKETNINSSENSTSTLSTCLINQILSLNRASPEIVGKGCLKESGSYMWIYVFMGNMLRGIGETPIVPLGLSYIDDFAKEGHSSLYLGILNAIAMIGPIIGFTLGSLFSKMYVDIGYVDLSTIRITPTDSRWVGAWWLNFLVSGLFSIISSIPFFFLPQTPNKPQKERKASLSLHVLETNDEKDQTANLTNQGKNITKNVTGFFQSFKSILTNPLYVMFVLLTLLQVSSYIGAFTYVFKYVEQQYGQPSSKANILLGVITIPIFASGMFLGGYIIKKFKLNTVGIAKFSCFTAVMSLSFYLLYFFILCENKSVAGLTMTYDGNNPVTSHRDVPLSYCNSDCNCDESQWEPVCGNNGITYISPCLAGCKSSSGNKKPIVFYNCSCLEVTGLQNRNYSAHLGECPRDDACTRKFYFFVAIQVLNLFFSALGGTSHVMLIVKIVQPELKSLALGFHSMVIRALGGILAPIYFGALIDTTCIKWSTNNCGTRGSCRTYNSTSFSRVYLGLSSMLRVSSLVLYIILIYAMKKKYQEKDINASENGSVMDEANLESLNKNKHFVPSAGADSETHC

[1] = tested on: SARS-CoV-2 (strain USA-WA1/2020); test: HeLa-ACE2 high-content imaging antiviral assay; details: read-out: average EC90; compound alone
OAT3 = molecular target: T5, OAT3 (Homo sapiens, UniProt Q8TCC7); test: Transporter inhibition using transfected HEK293 cells; details: uptake of [3H]-ES by OAT3; control inhibitor 1000 uM
T5 sequence (Q8TCC7 1-542): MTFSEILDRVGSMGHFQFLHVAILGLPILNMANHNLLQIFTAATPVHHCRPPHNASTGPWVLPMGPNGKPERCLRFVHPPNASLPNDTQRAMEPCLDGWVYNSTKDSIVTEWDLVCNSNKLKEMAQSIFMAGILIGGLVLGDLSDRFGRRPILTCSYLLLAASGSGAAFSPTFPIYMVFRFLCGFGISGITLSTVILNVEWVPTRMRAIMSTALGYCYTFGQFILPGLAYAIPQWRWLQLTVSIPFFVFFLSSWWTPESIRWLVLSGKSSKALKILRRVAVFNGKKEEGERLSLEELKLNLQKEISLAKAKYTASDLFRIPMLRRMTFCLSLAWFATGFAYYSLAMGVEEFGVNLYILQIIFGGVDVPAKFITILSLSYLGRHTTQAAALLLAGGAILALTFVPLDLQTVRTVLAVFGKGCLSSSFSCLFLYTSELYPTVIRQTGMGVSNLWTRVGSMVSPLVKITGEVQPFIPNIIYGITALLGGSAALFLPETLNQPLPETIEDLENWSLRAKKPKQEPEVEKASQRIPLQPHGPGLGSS

[2] = tested on: SARS-CoV-2 (strain USA-WA1/2020); assay type: cell-based; details: replicate plates

CN/C(=N/CCSCc1nc[nH]c1C)NC#N [Cimetidine]
% Uptake Activity (MATE2K): 0.418% (2×) and -0.835% (2×)
% Uptake Activity (MATE1): 0.628% (2×) and -0.452% (2×) and -0.176% (2×)

CO[C@H]1/C=C/O[C@@]2(C)Oc3c(C)c(O)c4c(O)c(cc(O)c4c3C2=O)NC(=O)/C(C)=C\C=C\[C@H](C)[C@H](O)[C@@H](C)[C@@H](O)[C@@H](C)[C@H](OC(C)=O)[C@@H]1C [Rifamycin SV]
% Uptake Activity (OATP1B3): 0.0321% and 0.128% and -0.16%
% Uptake Activity (OATP1B1): 0.364% and 0.07% and -0.434%

CCC(CC)COC(=O)[C@H](C)N[P@](=O)(OC[C@H]1O[C@@](C#N)(c2ccc3c(N)ncnn23)[C@H](O)[C@@H]1O)Oc1ccccc1 [remdesivir, reference compound]
EC90 [1]: 170 nM

CCCN(CCC)S(=O)(=O)c1ccc(C(=O)O)cc1 [Probenecid]
% Uptake Activity (OAT3): -0.18% and 0.11% and 0.06%
CPM (OAT3): 234 CPM and 251 CPM and 248 CPM

CCC(CC)COC(=O)[C@H](C)N[P@](=O)(OC[C@H]1O[C@@](C#N)(c2ccc3c(N)ncnn23)[C@H](O)[C@@H]1O)Oc1ccccc1 [REM]
Activity (normalized well value, Figure 3B combination matrix) ([2]; PF-00835231 0 + REM 0.02375 (REM alone)): -6.552 and -5.992 and -10.5278
Activity (normalized well value, Figure 3B combination matrix) ([2]; PF-00835231 0 + REM 0.095 (REM alone)): 80.284 and 72.4309 and 68.9765
Activity (normalized well value, Figure 3B combination matrix) ([2]; PF-00835231 0 + REM 0.19 (REM alone)): 98.728 and 100.165

“And” between values parts separate entries of the source, which are not always exact repeats. Equal values may be shown once. Read-outs that look alike come from different tables or passages of the source.
